These results are taken from PubChem BioAssay AID873 (PCMD, 2007).

Protein sequences, listed by entry. Tags and fused reporters are not part of them. Residues count along the entry.
UniProt Q9Y337, 67-293 limits assumed: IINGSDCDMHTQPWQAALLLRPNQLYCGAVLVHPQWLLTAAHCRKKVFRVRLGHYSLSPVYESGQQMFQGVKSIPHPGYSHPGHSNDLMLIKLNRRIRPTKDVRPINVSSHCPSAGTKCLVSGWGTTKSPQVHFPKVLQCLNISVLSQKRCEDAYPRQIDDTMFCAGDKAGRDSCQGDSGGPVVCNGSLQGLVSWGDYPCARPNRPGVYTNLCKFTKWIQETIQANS

This is a selection; strong and weak results do not stand in their true shares. Some salts or complexes appear as unconnected parts, following the source record. Active and inactive are the calls of the source.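 Rule for the calls: active = inhibition of 40% or more; inactive = the rest.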

By inhibition is commonly meant the relative decrease from the control value, in per cent.

In this assay the target is Kallikrein-5 (Homo sapiens) (UniProt Q9Y337). The assay is described as follows: inhibition of kallikrein 5 (hK5) activity – biochemical, 1536-well, primary screen (AID 873).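 Note: 0% = enzyme controls without compound and 100% = no-enzyme blanks.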 To be noted: recombinant hK5, fluorogenic AMC substrate cleavage; at 5 µM; hits give high values.
As to `CP(=O)(Nc1cccc(Br)c1)Oc1ccccc1` (configuration not stated), the inhibition was inactive: 2.58%.

Turning to `Cc1cc(C)cc(OP(C)(=O)Nc2ccccn2)c1` (configuration not stated), the inhibition was inactive: -1.28%.

With `Cc1ccc(C)c(NP(C)(=O)Oc2ccccc2)c1` (configuration not stated), the inhibition is inactive: -9.38%.

As for `Cc1cc(C)cc(OP(C)(=O)Nc2ccc(C)cc2C)c1` (configuration not stated), the inhibition is inactive: -5.67%.

Turning to `CCOC(=O)c1ccc(NP(C)(=O)Oc2cc(C)cc(C)c2)cc1` (configuration not stated), the inhibition was inactive: -23.1%.

As for `COc1ccccc1OP(C)(=O)Nc1cccc(Br)c1` (configuration not stated), the inhibition was inactive: 2.11%.

For the molecule `CC1=NCCc2c1[nH]c1ccccc21.O=[N+]([O-])c1cc([N+](=O)[O-])c(O)c([N+](=O)[O-])c1`, the inhibition is inactive: 20.6%.

Take `O=C(O)c1cccc(Nc2c([N+](=O)[O-])cc([N+](=O)[O-])cc2[N+](=O)[O-])c1`: the inhibition is inactive: -0.82%.

Consider `CP(=O)(Nc1ccc(SC(F)(F)F)cc1)Oc1ccccc1` (configuration not stated), for which the inhibition is inactive: -21.3%.

As to `CCCOc1ccc(NP(C)(=O)Oc2ccc(Cl)cc2)cc1` (configuration not stated), the inhibition is inactive: -2.43%.

For `COc1ccccc1OP(C)(=O)Nc1c(C)cccc1C` (configuration not stated), the inhibition is inactive: -6.99%.

Take `CN1CCCCC1COC(=O)C1(O)c2ccccc2CCc2ccccc21` (configuration not stated): the inhibition is inactive: -5.34%.

Consider `O=[N+]([O-])c1cc([N+](=O)[O-])c(Nc2nnnn2CCO)c([N+](=O)[O-])c1`, for which the inhibition was inactive: 0.72%.

On to `CCOC(=O)C(CC)C1=NC(C)(C)Cc2ccccc21.O=[N+]([O-])c1cc([N+](=O)[O-])c(O)c([N+](=O)[O-])c1` (configuration not stated), for which the inhibition was inactive: -0.54%.

Take `Cc1nc2ccc3ccccc3c2s1.O=[N+]([O-])c1cc([N+](=O)[O-])c(O)c([N+](=O)[O-])c1`: the inhibition is inactive: -13.9%.

Consider `O=[N+]([O-])c1cc([N+](=O)[O-])c(-n2nnc3ccccc32)c([N+](=O)[O-])c1`, for which the inhibition was inactive: 0.36%.

On to `CP(=O)(Nc1ccccn1)Oc1ccc(Cl)cc1` (configuration not stated), for which the inhibition is inactive: -2.2%.

Take `CCOP(C)(=S)SCC(=O)NC(C)C(=O)O` (configuration not stated): the inhibition was inactive: -13.9%.

Consider `CCOC(=O)c1ccc(NP(C)(=O)Oc2ccc(OC)cc2)cc1` (configuration not stated), for which the inhibition is inactive: -7.84%.

On to `CCc1ccc(OP(C)(=O)N2CCN(c3ccc([N+](=O)[O-])cc3)CC2)cc1` (configuration not stated), for which the inhibition was inactive: -0.28%.

Turning to `CP(=O)(NC(=O)Nc1ccccc1)Oc1ccccc1` (configuration not stated), the inhibition is inactive: -13.7%.

Turning to `Cc1cc(C)cc(OP(C)(=O)Nc2ccc(SC(F)(F)F)cc2)c1` (configuration not stated), the inhibition is active: 48.5%.

In the case of `Cc1cccc(C)c1OP(C)(=O)Nc1ccc(SC(F)(F)F)cc1` (configuration not stated), the inhibition was inactive: 3.29%.

For the molecule `CP(=O)(Nc1ccc(SC(F)(F)F)cc1)Oc1ccc(Cl)cc1` (configuration not stated), the inhibition was inactive: 3.69%.

In the case of `CP(=O)(Oc1ccccc1)OC(c1ccccc1)C(F)(F)F` (configuration not stated), the inhibition was inactive: 18.3%.

Turning to `COc1ccccc1OP(C)(=O)Nc1ccccc1` (configuration not stated), the inhibition is inactive: -6.38%.

On to `CP(=O)(Nc1ccccc1Br)Oc1ccccc1` (configuration not stated), for which the inhibition was inactive: -3.54%.

For the molecule `CP(=S)(Nn1cnnc1)Oc1ccccc1` (configuration not stated), the inhibition is inactive: 12.5%.

On to `COc1ccccc1OP(C)(=O)Nc1cc(Cl)ccc1C` (configuration not stated), for which the inhibition was inactive: -3.5%.

As to `COc1ccc(OP(C)(=O)Nc2cccc(F)c2)cc1` (configuration not stated), the inhibition was inactive: -10.2%.

For `Cc1cc(C)cc(OP(C)(N)=O)c1` (configuration not stated), the inhibition is inactive: 2.87%.

Regarding `CCOC(=O)c1ccc(NP(C)(=O)Oc2ccccc2)cc1` (configuration not stated), the inhibition was inactive: -12.8%.

As to `COc1ccccc1OP(C)(=O)Nc1ccc(C)cc1` (configuration not stated), the inhibition was active: 51.2%.

For the molecule `Cc1ccc(NP(C)(=O)Oc2ccccc2)c(C)c1` (configuration not stated), the inhibition was inactive: -6.81%.

Take `CC(C)(C)c1ccc(OP(C)(=O)Nc2ccc(SC(F)(F)F)cc2)cc1` (configuration not stated): the inhibition was inactive: -11.8%.

In the case of `Cc1cccc(C)c1OP(C)(N)=O` (configuration not stated), the inhibition was inactive: -3.35%.

Consider `O=[N+]([O-])c1ccc2c(c1)C=Nc1ccccc1O2`, for which the inhibition was inactive: 13%.

Turning to `CCN(CC)CCCOC(=O)C(O)(c1ccccc1)c1ccccc1`, the inhibition is inactive: 7.83%.

For `CCc1ccc(OP(C)(=O)O)cc1`, the inhibition is inactive: 5.4%.

Consider `CP(=O)(Nc1ccccn1)Oc1ccccc1` (configuration not stated), for which the inhibition is inactive: 12.5%.

Regarding `COc1ccccc1OP(C)(=O)Nc1ccc(C)cc1C` (configuration not stated), the inhibition is inactive: 0.79%.

With `O=[N+]([O-])c1cc([N+](=O)[O-])c(Nc2ccccn2)c([N+](=O)[O-])c1`, the inhibition is inactive: 0.17%.

Take `Cc1c(NP(C)(=O)Oc2ccc(C(C)C)cc2)c(=O)n(-c2ccccc2)n1C` (configuration not stated): the inhibition is inactive: -28.9%.

In the case of `CN(C)CCOC(=O)C(O)(c1ccccc1)C1CCCC1` (configuration not stated), the inhibition was inactive: 1.36%.

For `COc1ccc(OP(C)(=O)Nc2ccccn2)cc1` (configuration not stated), the inhibition was inactive: -3.54%.

On to `COc1ccccc1OP(C)(=O)Nc1ccc(Br)cc1` (configuration not stated), for which the inhibition is inactive: -2.9%.

In the case of `CP(=O)(OCCOc1ccccc1)OCCOc1ccccc1`, the inhibition is inactive: 0.99%.

With `CP(=O)(Nc1ccc(Cl)cc1Cl)Oc1ccccc1` (configuration not stated), the inhibition is inactive: -11.7%.

In the case of `Cc1nc2ccc3ccccc3c2o1.O=[N+]([O-])c1cc([N+](=O)[O-])c(O)c([N+](=O)[O-])c1`, the inhibition is inactive: 5.12%.

In the case of `COc1ccc(OP(C)(=O)Nc2ccccc2Br)cc1` (configuration not stated), the inhibition is inactive: -2.03%.

For the molecule `COc1ccccc1OP(C)(=O)Nc1ccc(C)c(C)c1` (configuration not stated), the inhibition was inactive: -9.24%.

Consider `Cc1cc(C)cc(OP(C)(=O)Nc2cccc(C(F)(F)F)c2)c1` (configuration not stated), for which the inhibition is inactive: 4.75%.

Turning to `CP(=O)(OC12CC3CC(CC(C3)C1)C2)OC12CC3CC(CC(C3)C1)C2`, the inhibition was inactive: -9.97%.

For `CCOC(=O)c1ccc(NP(C)(=O)Oc2ccc(Cl)cc2)cc1` (configuration not stated), the inhibition is inactive: -13.2%.

For `CN(C)C(=O)c1c([N+](=O)[O-])cc([N+](=O)[O-])cc1[N+](=O)[O-]`, the inhibition is inactive: -3.44%.

As for `CP(=O)(Nc1ccc(Cl)cc1)Oc1ccc(F)cc1` (configuration not stated), the inhibition is inactive: -1.38%.

`CC(C)(C)c1ccc(OP(C)(=O)O)cc1`: the inhibition was inactive: -5.12%.

Take `COc1ccccc1OP(C)(=O)Nc1ccccc1Br` (configuration not stated): the inhibition was inactive: -6.22%.

Turning to `CP(=O)(Oc1ccccc1)N1CCOC1=O` (configuration not stated), the inhibition was inactive: 24.1%.

`CCc1ccc(OP(C)(=O)Nc2cccnc2)cc1` (configuration not stated): the inhibition was inactive: -4.97%.

As to `O=C(OCCCN1CCCC1)C(O)(c1ccccc1)C1CCCCC1` (configuration not stated), the inhibition is inactive: 1.35%.

For `CCN(CC)CC(O)COC(=O)C(O)(c1ccccc1)C1CCCCC1` (configuration not stated), the inhibition was inactive: -4%.

Turning to `COc1ccc(OP(C)(=O)Nc2ccc(Br)cc2)cc1` (configuration not stated), the inhibition was inactive: -18.6%.

With `Cc1ccccc1NP(C)(=O)Nc1ccccc1C`, the inhibition is inactive: 4.52%.

For `CP(=O)(Nc1ccc2c(c1)OCCO2)Oc1ccccc1` (configuration not stated), the inhibition was inactive: -24.8%.

On to `CCOP(C)(=S)SCC(=O)NC(C)(CC)C(=O)O` (configuration not stated), for which the inhibition was inactive: -3.82%.

As for `CP(=O)(Nc1ccc(SC(F)(F)F)cc1)Oc1ccc(F)cc1` (configuration not stated), the inhibition is inactive: 1.47%.

`O=[N+]([O-])c1cc([N+](=O)[O-])c(NCC2CCS(=O)(=O)C2)c([N+](=O)[O-])c1` (configuration not stated): the inhibition was inactive: -0.22%.

As for `Cc1cc(-c2cccc3ccccc23)c(C)cn1.O=[N+]([O-])c1cc([N+](=O)[O-])c(O)c([N+](=O)[O-])c1`, the inhibition was inactive: -7.42%.

For `O=[N+]([O-])c1ccc(OP2(=O)COCCO2)cc1` (configuration not stated), the inhibition was inactive: 1.82%.

As for `CN(C)CCOC(=O)C(O)(c1ccccc1)C1CCCCC1` (configuration not stated), the inhibition was inactive: -11.3%.

In the case of `COc1ccc(OP(C)(=O)Nc2cccc(Br)c2)cc1` (configuration not stated), the inhibition was inactive: 3.8%.

`CCCCCOc1ccc(NP(C)(=O)Oc2ccc(Cl)cc2Cl)cc1` (configuration not stated): the inhibition is inactive: -1.82%.

On to `CP(=O)(Nc1ccccc1)Oc1ccc(F)cc1` (configuration not stated), for which the inhibition is inactive: -4.68%.

As for `CCN(CC)CCCOC(=O)C(O)(c1ccccc1)C1CCCCC1` (configuration not stated), the inhibition was inactive: -12.9%.

Consider `COc1ccc(OP(C)(=O)Nc2ccc(SC(F)(F)F)cc2)cc1` (configuration not stated), for which the inhibition was inactive: -15.1%.

Consider `CCOC(=O)c1ccc(NP(C)(=O)Oc2ccc(F)cc2)cc1` (configuration not stated), for which the inhibition is inactive: -9%.

With `COc1ccc2c(c1O)-c1c(O)c(OC)cc3c1[C@H](C2)[N+](C)(C)CC3.O=[N+]([O-])c1cc([N+](=O)[O-])c([O-])c([N+](=O)[O-])c1[O-]`, the inhibition was inactive: 5.49%.

Consider `O=C(OCCN1CCN(CCOCc2ccccc2)CC1)C(O)(c1ccccc1)c1ccccc1`, for which the inhibition is inactive: -8.5%.

On to `O=C(OC1CN2CCC1CC2)c1ccc([N+](=O)[O-])cc1` (configuration not stated), for which the inhibition is inactive: -5.58%.

Consider `CC(C)c1ccc(OP(C)(=O)Nc2ccc(SC(F)(F)F)cc2)cc1` (configuration not stated), for which the inhibition is inactive: -8.06%.

For `CP(=O)(Nc1ccccc1F)Oc1ccccc1` (configuration not stated), the inhibition is inactive: 6.65%.
